Earlier results in article PMC4642336.

Biological target: NusG CTD (Escherichia coli) (UniProt P0AFG0)

In the case of NusE (from UniProt P0A7R5), the Kd is listed as 50 µM.
